Experimental data reported in patent publication US9718738B2 (priority 2014, dated 2017).

System: providence sweet corn
Experiment: Northeastern crop study, sweet corn harvestable yield
Details: sandy soil, sidedress

urea
Yield (100 wt) (N Rate 100 lbs N/acre): 102 100 wt
Yield (1,000 ears/acre) (N Rate 100 lbs N/acre): 18.3 1,000 ears/acre
Yield (100 wt) (N Rate 140 lbs N/acre): 101 100 wt
Yield (1,000 ears/acre) (N Rate 140 lbs N/acre): 16.5 1,000 ears/acre
